Laboratory results as given in patent US20250368649A1, “TETRAHYDROPYRIDOPYRIMIDINE PAN-KRAS INHIBITORS” (Mirati Therapeutics, Inc., priority 2022, published 2025).

The chains behind the UniProt entries cited, without tags or fusion partners. Where a name states a change or a piece, a line headed by the entry shows the natural chain unless it says otherwise.
UniProt P01116: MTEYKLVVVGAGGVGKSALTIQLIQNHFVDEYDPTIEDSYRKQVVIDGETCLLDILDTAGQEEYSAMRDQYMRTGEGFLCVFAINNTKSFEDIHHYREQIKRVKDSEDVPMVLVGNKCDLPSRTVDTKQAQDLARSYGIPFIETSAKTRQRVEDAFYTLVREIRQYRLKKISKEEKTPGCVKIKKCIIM

Columns and labels:
Experiment in all cases: biochemical
KRas G12R = KRas G12R (Homo sapiens, UniProt P01116, G12R); conditions: Binding to KRas (IC50 nM) G12R, TR-FRET displacement
KRas G12D = KRas G12D (Homo sapiens, UniProt P01116, G12D); conditions: Binding to KRas (IC50 nM) G12D, TR-FRET displacement
KRas G12V = KRas G12V (Homo sapiens, UniProt P01116, G12V); conditions: Binding to KRas (IC50 nM) G12V, TR-FRET displacement

| SMILES | IC50 (KRas G12R) [nM] | IC50 (KRas G12D) [nM] | IC50 (KRas G12V) [nM] |
| --- | --- | --- | --- |
| CCc1c(F)ccc2cc(O)cc(N3CCc4c(nc(OC[C@@]56CCCN5C[C@H](F)C6)nc4N4CCCn5nc(N(C)C(=O)N(C)C)cc5C4)C3)c12 [Example 272, 1-(5-(7-(8-ethyl-7-fluoro-3-hydroxynaphthalen-1-yl)-2-(((2R,7aS)-2-fluorohexahydro-1H-pyrrolizin-7a-yl)methoxy)-5,6,7,8-tetrahydropyrido[3,4-d]pyrimidin-4-yl)-5,6,7,8-tetrahydro-4H-pyrazolo[1,5-a][1,4]diazepin-2-yl)-1,3,3-trimethylurea] | 15 | 7 | 12 |
| CCc1c(F)ccc2cc(O)cc(N3CCc4c(nc(OC[C@@]56CCCN5C[C@H](F)C6)nc4N4CCCn5nc(C(=O)N6CC7CNCC7C6)cc5C4)C3)c12 (stereo partly drawn) [Example 273, (5-(7-(8-ethyl-7-fluoro-3-hydroxynaphthalen-1-yl)-2-(((2R,7aS)-2-fluorohexahydro-1H-pyrrolizin-7a-yl)methoxy)-5,6,7,8-tetrahydropyrido[3,4-d]pyrimidin-4-yl)-5,6,7,8-tetrahydro-4H-pyrazolo[1,5-a][1,4]diazepin-2-yl)(hexahydropyrrolo[3,4-c]pyrrol-2(1H)-yl)methanone] | < 2 | < 2 | < 2 |
| CCc1c(F)ccc2cc(O)cc(N3CCc4c(nc(OC[C@@]56CCCN5C[C@H](F)C6)nc4N4CCCn5nc(C(=O)N6CCC7(CCCCN7)C6)cc5C4)C3)c12 (stereo partly drawn) [Example 275, (5-(7-(8-ethyl-7-fluoro-3-hydroxynaphthalen-1-yl)-2(((2R,7as)-2-flurohexahydro-1H-pyrrolizin-7a-yl)methoxy)-5,6,7,8-tetrahydropyrido[3,4-d]pyrimidin-4yl)-5,6,7,8-tetrahydro-4H-pyrazolo[1,5-a][1,4]diazepin-2-yl)(2,6-diazaspiro[4.5]decan-2yl)methanone] | < 2 | < 2 | < 2 |
| CCc1c(F)ccc2cc(O)cc(N3CCc4c(nc(OC[C@@]56CCCN5C[C@H](F)C6)nc4N4CCCn5nc(C(=O)N6CC7CCC6C7)cc5C4)C3)c12 (stereo partly drawn) [Example 307, 2-azabicyclo[2.2.1]heptan-2-yl(5-(7-(8-ethyl-7-fluoro-3-hydroxynaphthalen-1-yl)-2-(((2R,7aS)-2-fluorohexahydro-1H-pyrrolizin-7a-yl)methoxy)-5,6,7,8-tetrahydropyrido[3,4-d]pyrimidin-4-yl)-5,6,7,8-tetrahydro-4H-pyrazolo[1,5-a][1,4]diazepin-2-yl)methanone] | < 2 | < 2 | < 2 |
| CCc1c(F)ccc2cc(O)cc(N3CCc4c(nc(OC[C@@]56CCCN5C[C@H](F)C6)nc4N4CCCn5nc(C(=O)N6CC7CC6CCO7)cc5C4)C3)c12 (stereo partly drawn) [Example 322, 2-oxa-6-azabicyclo[3.2.1]octan-6-yl(5-(7-(8-ethyl-7-fluoro-3-hydroxynaphthalen-1-yl)-2-(((2R,7aS)-2-fluorohexahydro-1H-pyrrolizin-7a-yl)methoxy)-5,6,7,8-tetrahydropyrido[3,4-d]pyrimidin-4-yl)-5,6,7,8-tetrahydro-4H-pyrazolo[1,5-a][1,4]diazepin-2-yl)methanone] | < 2 | < 2 | < 2 |
| CCc1c(F)ccc2cc(O)cc(N3CCc4c(nc(OC[C@@]56CCCN5C[C@H](F)C6)nc4N4CCCn5nc(C(=O)N6C7COCC6C7)cc5C4)C3)c12 [Example 325, 3-oxa-6-azabicyclo[3.1.1]heptan-6-yl(5-(7-(8-ethyl-7-fluoro-3-hydroxynaphthalen-1-yl)-2-(((2R,7aS)-2-fluorohexahydro-1H-pyrrolizin-7a-yl)methoxy)-5,6,7,8-tetrahydropyrido[3,4-d]pyrimidin-4-yl)-5,6,7,8-tetrahydro-4H-pyrazolo[1,5-a][1,4]diazepin-2-yl)methanone] | < 2 | < 2 | < 2 |
| CCc1c(F)ccc2cc(O)cc(N3CCc4c(nc(OC[C@@]56CCCN5C[C@H](F)C6)nc4N4CCCn5nc(S(=O)(=O)N(C)C)cc5C4)C3)c12 [Example 326, 5-(7-(8-ethyl-7-fluoro-3-hydroxynaphthalen-1-yl)-2-(((2R,7aS)-2-fluorohexahydro-11H-pyrrolizin-7a-yl)methoxy)-5,6,7,8-tetrahydropyrido[3,4-d]pyrimidin-4-yl)-N,N-dimethyl-5,6,7,8-tetrahydro-4H-pyrazolo[1,5-a][1,4]diazepine-2-sulfonamide] | 4 | < 2 | 5 |
| CCc1c(F)ccc2cc(O)cc(N3CCc4c(nc(OC[C@@]56CCCN5C[C@H](F)C6)nc4N4CCCn5nc(C(=O)N6CC7CC(C6)O7)cc5C4)C3)c12 [Example 327, 6-oxa-3-azabicyclo[3.1.1]heptan-3-yl(5-(7-(8-ethyl-7-fluoro-3-hydroxynaphthalen-1-yl)-2-(((2R,7aS)-2-fluorohexahydro-1H-pyrrolizin-7a-yl)methoxy)-5,6,7,8-tetrahydropyrido[3,4-d]pyrimidin-4-yl)-5,6,7,8-tetrahydro-4H-pyrazolo[1,5-a][1,4]diazepin-2-yl)methanone] | < 2 | < 2 | < 2 |
| CCc1c(F)ccc2cc(O)cc(N3CCc4c(nc(OC[C@@]56CCCN5C[C@H](F)C6)nc4N4CCCn5nc(C(=O)N6CC7CC(C7)C6)cc5C4)C3)c12 [Example 330, 3-azabicyclo[3.1]heptan-3-yl(5-(7-(8-ethyl-7-fluoro-3-hydroxynaphthalen-1-yl)-2-(((2R,7aS)-2-fluorohexahydro-1H-pyrrolizin-7a-yl)methoxy)-5,6,7,8-tetrahydropyrido[3,4-d]pyrimidin-4-yl)-5,6,7,8-tetrahydro-4H-pyrazolo[1,5-a][1,4]diazepin-2-yl)methanone] | < 2 | < 2 | < 2 |

The next lines start with the values.

| IC50 (KRas G12R) [nM] | IC50 (KRas G12D) [nM] | IC50 (KRas G12V) [nM] | SMILES |
| --- | --- | --- | --- |
| < 2 | < 2 | < 2 | CCc1c(F)ccc2cc(O)cc(N3CCc4c(nc(OC[C@@]56CCCN5C[C@H](F)C6)nc4N4CCCn5nc(C(=O)N6CCC7(CCCN7)C6)cc5C4)C3)c12 (stereo partly drawn) [Example 276, (5-(7-(8-ethyl-7-fluoro-3-hydroxynaphthalen-1-yl)-2-(((2R,7aS)-2-fluorohexahydro-1H-pyrrolizin-7a-yl)methoxy)-5,6,7,8-tetrahydropyrido[3,4-d]pyrimidin-4-yl)-5,6,7,8-tetrahydro-4H-pyrazolo[1,5-a][1,4]diazepin-2-yl)(1,7-diazaspiro[4.4]nonan-7-yl)methanone] |
| 5 | 3 | 4 | CCc1c(F)ccc2cc(O)cc(N3CCc4c(nc(OC[C@@]56CCCN5C[C@H](F)C6)nc4N4CCCn5nc(CC(=O)NC)cc5C4)C3)c12 [Example 298, 2-(5-(7-(8-ethyl-7-fluoro-3-hydroxynaphthalen-1-yl)-2-(((2R,7aS)-2-fluorohexahydro-1H-pyrrolizin-7a-yl)methoxy)-5,6,7,8-tetrahydropyrido[3,4-d]pyrimidin-4-yl)-5,6,7,8-tetrahydro-4H-pyrazolo[1,5-a][1,4]diazepin-2-yl)-N-methylacetamide] |
| 5 | 3 | 5 | CCc1c(F)ccc2cc(O)cc(N3CCc4c(nc(OC[C@@]56CCCN5C[C@H](F)C6)nc4N4CCCn5nc(CNS(C)(=O)=O)cc5C4)C3)c12 [Example 305, N-((5-(7-(8-ethyl-7-fluoro-3-hydroxynaphthalen-1-yl)-2-(((2R,7aS)-2-fluorohexahydro-1H-pyrrolizin-7a-yl)methoxy)-5,6,7,8-tetrahydropyrido[3,4-d]pyrimidin-4-yl)-5,6,7,8-tetrahydro-4H-pyrazolo[1,5-a][1,4]diazepin-2-yl)methyl)methanesulfonamide] |
| < 2 | < 2 | < 2 | CCc1c(F)ccc2cc(O)cc(N3CCc4c(nc(OC[C@@]56CCCN5C[C@H](F)C6)nc4N4CCCn5nc(C(N)=O)cc5C4)C3)c12 [Example 308, 5-(7-(8-ethyl-7-fluoro-3-hydroxynaphthalen-1-yl)-2-(((2R,7aS)-2-fluorohexahydro-1H-pyrrolizin-7a-yl)methoxy)-5,6,7,8-tetrahydropyrido[3,4-d]pyrimidin-4-yl)-5,6,7,8-tetrahydro-4H-pyrazolo[1,5-a][1,4]diazepine-2-carboxamide] |
| 7 | 4 | 8 | CCc1c(F)ccc2cc(O)cc(N3CCc4c(nc(OC[C@@]56CCCN5C[C@H](F)C6)nc4N4CCCn5nc(CN(C)C(=O)NC)cc5C4)C3)c12 [Example 309, 1-((5-(7-(8-ethyl-7-fluoro-3-hydroxynaphthalen-1-yl)-2-(((2R,7aS)-2-fluorohexahydro-1H-pyrrolizin-7a-yl)methoxy)-5,6,7,8-tetrahydropyrido[3,4-d]pyrimidin-4-yl)-5,6,7,8-tetrahydro-4H-pyrazolo[1,5-a][1,4]diazepin-2-yl)methyl)-1,3-dimethylurea] |
| < 2 | < 2 | < 2 | CCc1c(F)ccc2cc(O)cc(N3CCc4c(nc(OC[C@@]56CCCN5C[C@H](F)C6)nc4N4CCCn5nc(C(=O)N6CC7CC6CO7)cc5C4)C3)c12 (stereo partly drawn) [Example 323, (2-oxa-5-azabicyclo[2.2.1]heptan-5-yl)(5-(7-(8-ethyl-7-fluoro-3-hydroxynaphthalen-1-yl)-2-(((2R,7aS)-2-fluorotetrahydro-1H-pyrrolizin-7a(5H)-yl)methoxy)-5,6,7,8-tetrahydropyrido[3,4-d]pyrimidin-4-yl)-5,6,7,8-tetrahydro-4H-pyrazolo[1,5-a][1,4]diazepin-2-yl)methanone] |
| < 2 | 3 | < 2 | CCc1c(F)ccc2cc(O)cc(N3CCc4c(nc(OC[C@@]56CCCN5C[C@H](F)C6)nc4N4CCCn5nc(C(=O)N6CC7CCCC6C7)cc5C4)C3)c12 (stereo partly drawn) [Example 328, 6-azabicyclo[3.2.1]octan-6-yl(5-(7-(8-ethyl-7-fluoro-3-hydroxynaphthalen-1-yl)-2-(((2R,7aS)-2-fluorohexahydro-1H-pyrrolizin-7a-yl)methoxy)-5,6,7,8-tetrahydropyrido[3,4-d]pyrimidin-4-yl)-5,6,7,8-tetrahydro-4H-pyrazolo[1,5-a][1,4]diazepin-2-yl)methanone] |
